Laboratory results: patent US20230131993A1 (priority 2020, published 2023)

Columns and labels:
[1] = 24 h, 0.1 %
[2] = 24 h, 0.1 %; remark: listed apart in the source

- Degradation (%) of Avenanthramide C [1]: 85.7%
- Degradation of Avenanthramide B (%) [2]: 14.8%
Compound: O=P(O)(O)O[C@H]1[C@H](OP(=O)(O)O)[C@@H](OP(=O)(O)O)[C@H](OP(=O)(O)O)[C@@H](OP(=O)(O)O)[C@H]1OP(=O)(O)O [Phytic Acid]
